The values below are quoted from earlier work in PMC11597817, “Modulation of Multispecific Transporters by Uncaria tomentosa Extract and Its Major Phytoconstituents” (Pharmaceutics, 2024).

Each structure is given as a SMILES string.

The test system of one data set is MDR1. The settings on record: cited from earlier work.
A further data set concerns Rat MDR1. The conditions noted are these: cited from earlier work.

As for `CC1(C)C2CCC1(C)C(O)C2` (centres unmarked) [Borneol], the Type of interaction entry in the data set with MDR1 and in the data set with Rat MDR1 was “inhibitor” each time.
